Data reported in patent EP3436577B1.

Tests used:
[1] = biological target: cation-independent mannose-6-phosphate receptor (CIMPR); experiment: CIMPR affinity column, elution with a free M6P gradient, fractions read by GAA activity (4MU-α-glucose)
[2] = biological target: cation-independent mannose-6-phosphate receptor (CIMPR); experiment: M6P receptor (CIMPR) plate binding assay
[3] = biological target: cation-independent mannose-6-phosphate receptor (CIMPR); experiment: CIMPR affinity chromatography of purified ATB200 rhGAA from different production batches

percent of rhGAA bound to CIMPR (eluted with M6P) [1] [%] | percent of rhGAA that did not bind to the CIMPR [1] [%] | pKd [2] | percent CIMPR receptor binding [3] [%] | Substance
22 | 78 | – | – | Lumizyme® (alglucosidase alfa, conventional rhGAA) (from UniProt P10253 57-952) (enzyme)
– | – | 8.40 to 8.70 | 70 | ATB200 rhGAA (recombinant human acid α-glucosidase produced in CHO cell line GA-ATB-200) (from UniProt P10253 57-952) (enzyme)
27 | 73 | – | – | Myozyme® (alglucosidase alfa, conventional rhGAA) (from UniProt P10253 57-952) (enzyme)

pKd: −log10 of the molar value.
